# Results reported in patent publication US20110319484A1, “NEUROPROTECTIVE COMPOUNDS” (Parque Tecnologico de Ciencias de la Salud, priority 2009, published 2011).
# pIC50: −log10 of the molar value.
# Target: T1, HMG-CoA reductase enzyme (Homo sapiens, UniProt P04035)
# T1 construct: the oxidation of the NADPH by the catalytic subunit of the HMG-CoA reductase
# T1 sequence (P04035 340-888 limits assumed): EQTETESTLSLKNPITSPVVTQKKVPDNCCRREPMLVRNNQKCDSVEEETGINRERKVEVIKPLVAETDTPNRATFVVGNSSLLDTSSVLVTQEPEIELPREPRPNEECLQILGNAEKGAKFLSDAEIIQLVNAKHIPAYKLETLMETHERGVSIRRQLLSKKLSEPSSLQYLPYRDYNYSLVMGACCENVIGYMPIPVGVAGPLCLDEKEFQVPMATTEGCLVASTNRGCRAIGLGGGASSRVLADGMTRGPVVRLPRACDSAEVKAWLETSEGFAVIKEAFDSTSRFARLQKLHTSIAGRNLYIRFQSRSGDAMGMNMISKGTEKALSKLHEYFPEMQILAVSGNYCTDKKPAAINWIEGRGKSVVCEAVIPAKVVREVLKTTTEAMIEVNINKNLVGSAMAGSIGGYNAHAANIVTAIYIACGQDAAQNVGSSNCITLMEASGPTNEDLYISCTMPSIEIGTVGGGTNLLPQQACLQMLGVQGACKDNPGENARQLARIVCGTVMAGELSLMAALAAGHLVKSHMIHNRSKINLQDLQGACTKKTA
# Test: HMG-CoA reductase inhibition, spectrophotometric NADPH oxidation at 340 nm
# Assay type: biochemical
# Settings: four independent assays; Trimmed Spearman-Karber method
# Text: To that end, the degree of inhibition of the HMG-CoA reductase enzyme by the different (1S,3R,7S,8S,8aR)-1,2,3,7,8,8a-hexahydro-3,7-dimethyl-8-[2-[(2R,4R)-tetrahydro-4-hydroxy-6-oxo-2H-pyran-2-yl]ethyl-1-naphthalenyl propanoate derivatives, optionally mono- or di-methylated at the carbon in the alpha position of propanoic acid (NST0003, NST0004 and NST0005) was studied.
# During the reaction, the HMG-CoA reductase uses NADPH as a reducing agent and 3-hydroxy-3-methylglutaryl coenzyme A (HMG-CoA) as a substrate. Mevalonic acid, which serves as a substrate for the following reaction in order to continue with the cholesterol synthesis, is obtained as a reaction product. […]
# This in vitro assay is based on the spectrophotometric measurement of the decrease of absorbance at 340 nm, representing the oxidation of the NADPH by the catalytic subunit of the HMG-CoA reductase in the presence of the HMG-CoA reductase substrate. […]
# Four independent assays were carried out. […] After brief agitation, the reading of the plate was taken in a spectrophotometer at the conditions of 340 nm, 37° C., detecting the decrease of absorbance at 340 nm over time. The percentage of HMG-CoA reductase enzymatic activity with respect to the control was calculated. The IC50 was calculated with the data obtained by means of the Trimmed Spearman-Karber method (Version 1.5).
compound,measurement,value
"CC(C)c1c(C(=O)Nc2ccccc2)c(-c2ccccc2)c(-c2ccc(F)cc2)n1CC[C@@H](O)C[C@@H](O)CC(=O)O [atorvastatin, reference compound]",pIC50,6.79
